Source: paper PMC5840146, “Structure-Activity Relationship Analysis of 3-Phenylcoumarin-Based Monoamine Oxidase B Inhibitors” (Frontiers in Chemistry, 2018)

The chains behind the UniProt entries cited, without tags or fusion partners.
UniProt P21397, whole entry: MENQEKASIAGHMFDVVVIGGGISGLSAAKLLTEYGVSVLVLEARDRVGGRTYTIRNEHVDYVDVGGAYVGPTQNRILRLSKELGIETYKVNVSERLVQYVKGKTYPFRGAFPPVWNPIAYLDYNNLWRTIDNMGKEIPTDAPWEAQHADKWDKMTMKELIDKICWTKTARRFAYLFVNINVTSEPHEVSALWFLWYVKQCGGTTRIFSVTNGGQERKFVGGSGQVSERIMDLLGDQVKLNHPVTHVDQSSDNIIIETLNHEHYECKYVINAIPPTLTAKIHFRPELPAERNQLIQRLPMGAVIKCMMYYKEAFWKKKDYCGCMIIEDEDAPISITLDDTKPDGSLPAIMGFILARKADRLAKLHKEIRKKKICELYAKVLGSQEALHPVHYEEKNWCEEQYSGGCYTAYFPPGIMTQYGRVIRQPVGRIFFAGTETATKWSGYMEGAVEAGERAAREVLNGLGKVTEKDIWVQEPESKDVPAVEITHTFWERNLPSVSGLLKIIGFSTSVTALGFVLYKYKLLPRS

Target: T1, MAO-A (Homo sapiens, UniProt P21397)
T1 construct: purchased Sigma-Aldrich
Experiment: continuous spectrophotometric MAO-A inhibition assay
Assay type: biochemical
Conditions: 100 μM
Procedure: Both monoamine oxidase A (MAO-A) and B (MAO-B) protein and the reagents for the chromogenic solution of vanillic acid (4-hydroxy-3-methoxylbenzoic acid, 97% purity), 4-aminoantipyrine (reagent grade), horseradish peroxidase and the substrate tyramine hydrochloride (minimum 99% purity) as well as the potassium phosphate buffer, which was prepared using potassium phosphate dibasic trihydrate (≥99% ReagentPlus™) and potassium phosphate monobasic (minimum 98% purity, molecular biology tested), were purchased from Sigma-Aldrich (St. Louis, MO, USA) for the spectrophotometric assay.
The protocol for continuous spectrophotometric assay (Holt et al., [1997]) was followed in the activity measurements. […] The background signal was measured using multilabel reader (Victor^TM X4, 2030 Multilabel Reader, PerkinElmer, Waltham, MA, USA) at A490 before reaching the total 200 μl volume by adding 20 μl of tyramine to final concentration of 0.5 mM on the plate. […] After adding the substrate, the plates were measured 300 times every 15 s using 1 s exposure time. […]
Based on the activity measurement, suitable concentrations were chosen for both MAO-B and MAO-A to be used in the inhibition studies (Supplementary Figures S1, S2, and S5, Table 1, Supplementary Table S1). The experiment conditions should produce absorbance change of ~0.35 (Holt et al., [1997]). […]

C#CCN(C)CCCOc1ccc(Cl)cc1Cl [clorgyline, reference compound]
MAO-A inhibition %: 100.89^(2) %
